Source: US20250034165A1, “COMPOUND CONTAINING CYCLOALKYL OR HALOALKYL” (CHIA TAI TIANQING PHARMACEUTICAL GROUP CO., LTD., priority 2021, published 2025)

By UniProt entry, the sequences of proteins in these tests, tags left out. Where a name states a change or a piece, a line headed by the entry shows the natural chain unless it says otherwise. Chains listed by the source or under a name are the forms on record and can include a tag or linker. Residues count along the entry.
UniProt P00533, 25-1210 T790M/L858R limits assumed: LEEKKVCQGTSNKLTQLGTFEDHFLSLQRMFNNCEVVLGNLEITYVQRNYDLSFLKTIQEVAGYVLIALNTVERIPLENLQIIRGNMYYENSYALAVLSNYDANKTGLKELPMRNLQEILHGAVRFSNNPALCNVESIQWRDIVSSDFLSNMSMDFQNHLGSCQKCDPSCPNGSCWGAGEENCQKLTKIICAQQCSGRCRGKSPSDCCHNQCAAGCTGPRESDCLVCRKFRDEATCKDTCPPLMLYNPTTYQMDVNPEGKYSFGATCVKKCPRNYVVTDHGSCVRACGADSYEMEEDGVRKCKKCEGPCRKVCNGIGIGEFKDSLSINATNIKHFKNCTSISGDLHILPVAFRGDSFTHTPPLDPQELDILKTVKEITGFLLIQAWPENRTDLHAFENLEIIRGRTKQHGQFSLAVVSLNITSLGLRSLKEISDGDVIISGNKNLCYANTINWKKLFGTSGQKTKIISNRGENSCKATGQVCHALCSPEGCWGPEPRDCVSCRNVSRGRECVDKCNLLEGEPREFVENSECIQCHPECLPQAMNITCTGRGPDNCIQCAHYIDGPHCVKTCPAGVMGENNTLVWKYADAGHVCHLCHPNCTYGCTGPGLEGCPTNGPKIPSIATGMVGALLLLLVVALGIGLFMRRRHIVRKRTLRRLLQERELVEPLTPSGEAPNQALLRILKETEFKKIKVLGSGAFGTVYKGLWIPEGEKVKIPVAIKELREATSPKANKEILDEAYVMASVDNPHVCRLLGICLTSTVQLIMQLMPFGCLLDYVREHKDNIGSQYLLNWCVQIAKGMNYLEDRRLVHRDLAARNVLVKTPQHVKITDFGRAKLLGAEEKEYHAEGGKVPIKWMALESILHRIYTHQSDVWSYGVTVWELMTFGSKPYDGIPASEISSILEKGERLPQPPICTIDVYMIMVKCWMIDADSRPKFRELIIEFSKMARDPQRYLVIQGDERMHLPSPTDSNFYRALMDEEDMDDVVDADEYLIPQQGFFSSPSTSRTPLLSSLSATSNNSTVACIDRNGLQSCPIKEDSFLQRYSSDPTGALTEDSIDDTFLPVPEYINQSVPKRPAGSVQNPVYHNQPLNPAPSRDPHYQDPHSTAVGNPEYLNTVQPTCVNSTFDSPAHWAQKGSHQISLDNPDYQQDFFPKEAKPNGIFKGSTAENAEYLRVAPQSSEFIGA
UniProt P00533, 25-1210 T790M/C797S/L858R limits assumed: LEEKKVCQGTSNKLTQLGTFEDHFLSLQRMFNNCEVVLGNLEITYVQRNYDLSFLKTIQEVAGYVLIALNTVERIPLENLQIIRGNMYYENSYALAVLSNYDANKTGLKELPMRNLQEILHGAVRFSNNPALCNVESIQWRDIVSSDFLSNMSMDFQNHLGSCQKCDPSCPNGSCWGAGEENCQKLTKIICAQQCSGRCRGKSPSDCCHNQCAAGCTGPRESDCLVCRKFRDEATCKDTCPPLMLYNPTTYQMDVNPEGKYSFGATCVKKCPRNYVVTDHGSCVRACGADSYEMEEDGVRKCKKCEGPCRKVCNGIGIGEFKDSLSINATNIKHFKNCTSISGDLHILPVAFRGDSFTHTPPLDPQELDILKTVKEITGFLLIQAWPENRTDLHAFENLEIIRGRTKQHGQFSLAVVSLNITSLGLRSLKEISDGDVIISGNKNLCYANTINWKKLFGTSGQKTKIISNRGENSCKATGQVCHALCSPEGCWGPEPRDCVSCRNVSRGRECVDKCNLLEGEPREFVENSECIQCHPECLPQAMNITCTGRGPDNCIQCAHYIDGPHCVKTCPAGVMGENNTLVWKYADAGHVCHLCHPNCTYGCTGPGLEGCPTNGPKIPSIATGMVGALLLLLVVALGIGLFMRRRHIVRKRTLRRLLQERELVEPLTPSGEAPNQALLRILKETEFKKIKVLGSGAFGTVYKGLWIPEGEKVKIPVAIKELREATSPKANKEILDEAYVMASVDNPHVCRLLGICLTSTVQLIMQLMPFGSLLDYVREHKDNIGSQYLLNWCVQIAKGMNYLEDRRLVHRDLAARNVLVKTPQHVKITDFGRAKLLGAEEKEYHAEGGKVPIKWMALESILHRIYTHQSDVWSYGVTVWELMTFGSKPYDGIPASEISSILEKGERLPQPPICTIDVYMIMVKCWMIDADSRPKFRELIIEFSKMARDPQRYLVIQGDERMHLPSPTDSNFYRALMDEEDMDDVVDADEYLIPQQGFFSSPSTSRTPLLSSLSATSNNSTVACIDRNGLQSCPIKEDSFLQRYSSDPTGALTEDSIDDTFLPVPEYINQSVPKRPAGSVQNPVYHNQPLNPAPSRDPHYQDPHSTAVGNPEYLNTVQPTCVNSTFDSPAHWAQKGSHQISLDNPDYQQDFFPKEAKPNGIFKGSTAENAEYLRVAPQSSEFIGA
UniProt P00533, with tags, fused parts or gaps limits assumed, stated change not applied: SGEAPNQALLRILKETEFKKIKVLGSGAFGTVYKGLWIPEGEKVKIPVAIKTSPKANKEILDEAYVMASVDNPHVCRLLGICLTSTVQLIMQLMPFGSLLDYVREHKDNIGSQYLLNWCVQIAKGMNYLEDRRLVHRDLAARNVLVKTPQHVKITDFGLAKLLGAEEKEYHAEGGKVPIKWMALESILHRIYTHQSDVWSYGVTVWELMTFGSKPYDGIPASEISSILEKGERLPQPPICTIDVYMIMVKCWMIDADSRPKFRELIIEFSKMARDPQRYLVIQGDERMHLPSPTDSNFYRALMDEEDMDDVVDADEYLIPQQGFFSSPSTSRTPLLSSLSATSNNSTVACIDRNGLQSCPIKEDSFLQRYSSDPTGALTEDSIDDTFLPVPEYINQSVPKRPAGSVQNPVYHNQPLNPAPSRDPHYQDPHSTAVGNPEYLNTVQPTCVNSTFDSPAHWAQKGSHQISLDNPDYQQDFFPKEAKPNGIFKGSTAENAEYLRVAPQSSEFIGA

Experiments:
EGFR (L858R/T790M/C797S) = EGFR (L858R/T790M/C797S) (Homo sapiens (Human), UniProt P00533, C797S/L858R/T790M); experiment: Inhibitory activity for EGFR (L858R/T790M/C797S) kinase; details: read-out: EGFR(L858R/T790M/C797S) (IC50); ATP 5 μM
Experimental: (§1) A 50 ng/μL EGFR (L858R/T790M/C797S, BPS) stock solution was diluted with a kinase buffer (50 mM HEPES, 10 mM MgCl2, 2 mM DTT, 1 mM EGTA, 0.01% Tween 20), and 6 μL of 1.67× working solution at 0.00167 ng/μL (final concentration: 0.001 ng/μL) was added to each well. Different compounds dissolved in DMSO were added to wells using a nanoliter pipettor, resulting in the final concentrations of the compounds of 10 nM to 0.0024 nM (4-fold gradient, 7 concentrations in total), and blank control wells (without enzyme) and negative control wells (with enzyme, plus vehicle DMSO) were set, 2 replicate wells for each concentration. After enzyme was reacted with the compound or vehicle for 30 min, 5×ATP at 25 μM (final concentration: 5 μM, Sigma) prepared with a kinase buffer was mixed with 5× substrate at 0.5 μM (final concentration: 0.1 μM, ULight-poly GT, PerkinElmer) at a ratio of 1:1 (v:v), and the mixture was added to each well at 4 μL/well. After being sealed with a film, the plate was incubated at room temperature for 2 h, and then 5 μL of 4×EDTA at 40 mM (final concentration: 10 mM) was added to each well. After the plate was incubated for 5 min at room temperature, 5 μL of 4× detection reagent at 8 nM (final concentration: 2 nM, Eu-anti-phospho-tyrosine antibody, PerkinElmer) was added to each well. After being incubated at room temperature for 1 h, the plate was read using a PerkinElmer Envision multi-mode microplate reader (excitation: 320 nm, emission: 665 nm), and IC50 was calculated by four-parameter fitting.

[1] = target: EGFR (d746-750/T790M/C797S) (Homo sapiens (Human), UniProt P00533, C797S/DEL746-750/T790M); experiment: Inhibitory activity for EGFR (d746-750/T790M/C797S) kinase; details: read-out: EGFR(d19/T790M/C797S) (IC50); ATP 5 μM
Experimental: 1.5 Screening for Inhibitory Activity for EGFR (d746-750/T790M/C797S) Kinase
A 50 ng/μL EGFR (d746-750/T790M/C797S, BPS) stock solution was diluted with a kinase buffer (50 mM HEPES, 10 mM MgCl2, 2 mM DTT, 1 mM EGTA, 0.01% Tween 20), and 6 μL of 1.67× working solution at 0.05 ng/μL (final concentration: 0.03 ng/μL) was added to each well. Different compounds dissolved in DMSO were added to the wells using a nanoliter pipettor, resulting in the final concentrations of the compounds of 10 nM to 0.0024 nM (4-fold gradient for 7 concentrations in total), and blank control wells (without enzyme) and negative control wells (with enzyme, plus vehicle DMSO) were set, 2 replicate wells for each concentration. After enzyme was reacted with the compound or vehicle for 30 min, 5×ATP at 25 μM (final concentration: 5 μM, Sigma) prepared with a kinase buffer was mixed with 5× substrate at 0.5 μM (final concentration: 0.1 μM, ULight-poly GT, PerkinElmer) at a ratio of 1:1 (v:v), and the mixture was added to each well at 4 μL/well. After being sealed with a film, the plate was incubated at room temperature for 2 h, and then 5 μL of 4×EDTA at 40 mM (final concentration: 10 mM) was added to each well. After the plate was incubated for 5 min at room temperature, 5 μL of 4× detection reagent at 8 nM (final concentration: 2 nM, Eu-anti-phospho-tyrosine antibody, PerkinElmer) was added to each well. After being incubated at room temperature for 1 h, the plate was read using a PerkinElmer Envision multi-mode microplate reader (excitation: 320 nm, emission: 665 nm), and IC50 was calculated by four-parameter fitting.

[2] = tested on: BAF3-EGFR (L858R/T790M/C797S) cells; experiment: Inhibition of proliferation of BAF3-EGFR (L858R/T790M/C797S) cells, CCK-8; details: read-out: BAF3(EGFR T790M L858R C797S) cell inhibitory activity IC50, 72 h
Experimental: A flask of EGFR (L858R/T790M/C797S) cells in the logarithmic growth phase and good conditions was taken, and the cells were collected and added to a centrifuge tube. 20 μL of cells were taken and counted, and the required number of cells (mL) was pipetted and centrifuged at 1200 rpm for 3 min. The supernatant was discarded, and an appropriate amount of plating medium (RPMI medium+10% FBS) was added to adjust the cell density to 1.5×10^5 cells/mL. The cells were seeded on a 96-well plate at 100 μL/well using a multi-channel pipette and cultured in a cell incubator at 37° C., 5% CO2 with saturated humidity. After overnight incubation, compounds were loaded using a nanoliter pipettor, 2 duplicate wells were set for each concentration, and cells without compound added were used as negative controls. After 72 h, CCK-8 was added at 10 μL/well for incubation for 2 h, then absorbance was measured at 450 nm with an Envision plate reader, and inhibition rate was calculated.
(§2) Inhibition rate (%)=(mean value of negative control group-mean value of experimental group)/(mean value of negative control group−mean value of blank group)×100%.
(§3) A dose-response curve was fitted by four-parameter analysis, with the logarithm of compound concentration serving as abscissa and inhibition rate serving as ordinate, such that IC50 was calculated.

[3] = tested on: PC-9 EGFR-Del19-T790M-C797S cells; experiment: Inhibition of proliferation of PC-9-EGFR (Del19 T790M C797S) cells, CCK-8; details: read-out: PC-9-EGFR (Del19 T790M C797S) cell inhibitory activity IC50, 72 h
Experimental: PC-9 EGFR-Del19-T790M-C797S cells in the logarithmic growth phase and good conditions were taken, washed with PBS, digested with pancreatin, terminated with a complete medium, collected and added to a centrifuge tube, adjusted to a cell density of 2×10^4 cells/mL, and seeded in a 96-well plate (100 μL/well). Meanwhile, compounds were loaded using a nanoliter pipettor resulting in the final concentrations of the compounds of 1000 nM-0.06 nM, and a control was set, replicate wells for each concentration. After 72 h of incubation in the cell incubator, the assay reagent CCK-8 (manufacturer: Dojindo Laboratories, Beijing; 10 μL/well) was added. After 2 h of incubation in the cell incubator, absorbance was measured at 450 nm on a PerkinElmer Envision microplate reader, and the inhibition rate was calculated.
as §2, §3

EGFR (L858R/T790M) = EGFR (L858R/T790M) (Homo sapiens (Human), UniProt P00533, L858R/T790M); experiment: Inhibitory activity for EGFR (L858R/T790M) kinase; details: read-out: EGFR(L858R/T790M) (IC50); ATP 5 μM
Experimental: as §1, with “(L858R/T790M, Carna)” for “(L858R/T790M/C797S, BPS)”, “0.004175” for “0.00167”, “0.0025” for “0.001”

IC50 (EGFR (L858R/T790M/C797S)): 0.12 nM
IC50 [1]: 0.076 nM
IC50 [2]: < 5 nM
IC50 [3]: < 50 nM
IC50 (EGFR (L858R/T790M)): 0.081 nM
Compound: [2H]C([2H])([2H])N(C1CCC(Nc2ccc3c(c2)NC2=NC(=O)c4cc(C)nc(c4)-c4cnn(C)c4OCCC[C@@H](C4CC4)CN23)CC1)C([2H])([2H])[2H] (single isomer, unassigned)
